Experimental data from US9499502B2, “5-substituted iminothiazines and their mono- and dioxides as BACE inhibitors, compositions, and their use” (Merck Sharp & Dohme Corp., priority 2011, dated 2016).

Chains of the proteins cited; added tags and fusions are not shown. Residues count along the entry.
UniProt Q9Y5Z0, 63-473 limits assumed: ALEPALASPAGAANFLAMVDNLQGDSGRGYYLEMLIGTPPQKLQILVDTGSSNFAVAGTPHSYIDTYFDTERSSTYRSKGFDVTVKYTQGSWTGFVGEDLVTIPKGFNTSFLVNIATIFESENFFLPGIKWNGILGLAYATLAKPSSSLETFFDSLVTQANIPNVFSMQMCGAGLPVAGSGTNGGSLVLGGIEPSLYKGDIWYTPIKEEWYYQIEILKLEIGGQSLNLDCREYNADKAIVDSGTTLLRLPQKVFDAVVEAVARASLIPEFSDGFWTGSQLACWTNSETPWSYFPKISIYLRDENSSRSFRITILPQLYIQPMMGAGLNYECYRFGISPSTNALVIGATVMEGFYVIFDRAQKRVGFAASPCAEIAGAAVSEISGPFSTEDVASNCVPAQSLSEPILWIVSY

Molecular target: purified human autoBACE-2 (Homo sapiens (Human), UniProt Q9Y5Z0)
Experiment: BACE-2 Assay (BACE-HTRF assay)
Assay type: biochemical
Conditions: read-out: BACE2 Ki; Ki calculated from IC50 using the Cheng-Prusoff equation

CC1(C)C(=N)N[C@](C)(c2cc(NC(=O)[C@H]3CCCO3)ccc2F)CS1(=O)=O [Example 9al]
Ki: 44 nM
